# Measurements published in the kinase profiling compilation of Christmann-Franck et al. (2016).
# Sequences of proteins named here, by UniProt entry; tags and fusion partners are left off. A change or cut given only in a name is not applied to a line headed by its entry.
# UniProt Q8NE63: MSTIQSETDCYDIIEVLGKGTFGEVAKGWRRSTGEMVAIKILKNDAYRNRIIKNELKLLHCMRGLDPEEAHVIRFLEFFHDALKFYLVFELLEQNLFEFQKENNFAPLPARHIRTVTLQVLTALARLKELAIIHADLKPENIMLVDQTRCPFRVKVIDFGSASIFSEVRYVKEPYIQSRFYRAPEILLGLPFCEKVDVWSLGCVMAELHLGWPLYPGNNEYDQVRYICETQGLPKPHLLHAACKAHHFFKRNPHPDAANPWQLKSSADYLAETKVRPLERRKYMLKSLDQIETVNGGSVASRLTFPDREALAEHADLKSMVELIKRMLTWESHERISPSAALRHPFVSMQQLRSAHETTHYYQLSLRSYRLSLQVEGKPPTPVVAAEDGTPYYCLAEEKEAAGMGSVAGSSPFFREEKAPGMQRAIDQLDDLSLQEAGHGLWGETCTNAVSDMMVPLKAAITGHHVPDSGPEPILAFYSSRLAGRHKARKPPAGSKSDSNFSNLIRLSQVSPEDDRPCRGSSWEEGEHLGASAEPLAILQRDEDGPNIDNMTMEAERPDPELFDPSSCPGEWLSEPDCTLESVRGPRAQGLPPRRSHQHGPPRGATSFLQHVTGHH
# UniProt Q9HC98: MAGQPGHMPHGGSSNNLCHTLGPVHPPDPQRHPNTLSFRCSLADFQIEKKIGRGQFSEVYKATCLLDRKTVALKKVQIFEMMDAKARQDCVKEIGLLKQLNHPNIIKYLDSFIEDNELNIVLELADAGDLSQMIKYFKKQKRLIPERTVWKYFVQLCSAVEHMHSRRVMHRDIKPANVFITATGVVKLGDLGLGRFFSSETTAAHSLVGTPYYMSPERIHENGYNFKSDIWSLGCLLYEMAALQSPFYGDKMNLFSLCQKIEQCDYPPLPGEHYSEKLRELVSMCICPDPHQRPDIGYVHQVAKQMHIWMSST
# UniProt P21802, whole entry, looked up: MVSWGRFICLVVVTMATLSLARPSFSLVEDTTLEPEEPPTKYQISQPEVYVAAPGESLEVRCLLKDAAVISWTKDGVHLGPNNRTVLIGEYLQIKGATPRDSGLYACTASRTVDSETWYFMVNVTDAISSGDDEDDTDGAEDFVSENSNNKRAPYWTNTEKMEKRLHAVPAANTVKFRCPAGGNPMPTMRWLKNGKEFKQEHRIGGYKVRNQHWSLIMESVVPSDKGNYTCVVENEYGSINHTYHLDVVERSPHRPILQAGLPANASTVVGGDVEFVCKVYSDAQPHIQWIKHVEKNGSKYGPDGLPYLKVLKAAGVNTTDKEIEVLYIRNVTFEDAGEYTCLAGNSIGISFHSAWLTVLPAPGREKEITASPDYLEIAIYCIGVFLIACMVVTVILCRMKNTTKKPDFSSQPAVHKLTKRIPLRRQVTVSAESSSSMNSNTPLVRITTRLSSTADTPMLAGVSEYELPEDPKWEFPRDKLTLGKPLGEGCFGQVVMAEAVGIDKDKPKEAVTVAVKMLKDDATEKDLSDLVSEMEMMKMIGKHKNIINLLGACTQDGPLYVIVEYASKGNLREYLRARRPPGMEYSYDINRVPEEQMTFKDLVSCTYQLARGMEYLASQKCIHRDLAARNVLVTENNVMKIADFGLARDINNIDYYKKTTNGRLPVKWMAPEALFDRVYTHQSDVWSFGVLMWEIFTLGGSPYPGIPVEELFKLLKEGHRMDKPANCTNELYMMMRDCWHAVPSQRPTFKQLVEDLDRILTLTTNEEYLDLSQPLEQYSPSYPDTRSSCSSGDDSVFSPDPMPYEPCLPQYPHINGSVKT
# UniProt Q9UEE5: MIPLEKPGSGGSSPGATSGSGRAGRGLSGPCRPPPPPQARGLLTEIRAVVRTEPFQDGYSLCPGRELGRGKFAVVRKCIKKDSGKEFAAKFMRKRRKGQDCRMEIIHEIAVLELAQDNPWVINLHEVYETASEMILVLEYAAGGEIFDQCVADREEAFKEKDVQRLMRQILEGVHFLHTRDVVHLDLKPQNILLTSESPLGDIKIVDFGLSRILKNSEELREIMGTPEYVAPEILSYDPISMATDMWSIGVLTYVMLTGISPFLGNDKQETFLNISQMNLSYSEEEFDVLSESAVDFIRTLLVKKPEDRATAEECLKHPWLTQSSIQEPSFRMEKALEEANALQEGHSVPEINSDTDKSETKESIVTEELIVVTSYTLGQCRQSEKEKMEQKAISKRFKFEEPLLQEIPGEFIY
# UniProt P42680: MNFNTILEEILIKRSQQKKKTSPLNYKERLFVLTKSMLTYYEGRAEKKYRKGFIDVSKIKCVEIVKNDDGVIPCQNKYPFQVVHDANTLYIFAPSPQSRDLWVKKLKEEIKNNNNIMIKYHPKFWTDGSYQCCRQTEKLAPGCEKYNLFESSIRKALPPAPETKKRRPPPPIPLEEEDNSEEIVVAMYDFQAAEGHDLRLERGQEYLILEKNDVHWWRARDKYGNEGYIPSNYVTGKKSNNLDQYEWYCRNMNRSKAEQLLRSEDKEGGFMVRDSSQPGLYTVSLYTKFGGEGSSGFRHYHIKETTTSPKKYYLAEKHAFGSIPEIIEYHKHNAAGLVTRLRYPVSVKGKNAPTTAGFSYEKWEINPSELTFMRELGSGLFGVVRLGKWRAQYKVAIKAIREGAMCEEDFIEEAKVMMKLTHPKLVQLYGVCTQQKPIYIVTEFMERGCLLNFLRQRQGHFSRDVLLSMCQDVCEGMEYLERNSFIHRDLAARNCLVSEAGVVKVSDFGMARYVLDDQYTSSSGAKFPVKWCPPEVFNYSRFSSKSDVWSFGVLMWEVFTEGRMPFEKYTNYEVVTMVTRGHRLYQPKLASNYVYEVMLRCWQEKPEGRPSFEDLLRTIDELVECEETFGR
# UniProt P53667: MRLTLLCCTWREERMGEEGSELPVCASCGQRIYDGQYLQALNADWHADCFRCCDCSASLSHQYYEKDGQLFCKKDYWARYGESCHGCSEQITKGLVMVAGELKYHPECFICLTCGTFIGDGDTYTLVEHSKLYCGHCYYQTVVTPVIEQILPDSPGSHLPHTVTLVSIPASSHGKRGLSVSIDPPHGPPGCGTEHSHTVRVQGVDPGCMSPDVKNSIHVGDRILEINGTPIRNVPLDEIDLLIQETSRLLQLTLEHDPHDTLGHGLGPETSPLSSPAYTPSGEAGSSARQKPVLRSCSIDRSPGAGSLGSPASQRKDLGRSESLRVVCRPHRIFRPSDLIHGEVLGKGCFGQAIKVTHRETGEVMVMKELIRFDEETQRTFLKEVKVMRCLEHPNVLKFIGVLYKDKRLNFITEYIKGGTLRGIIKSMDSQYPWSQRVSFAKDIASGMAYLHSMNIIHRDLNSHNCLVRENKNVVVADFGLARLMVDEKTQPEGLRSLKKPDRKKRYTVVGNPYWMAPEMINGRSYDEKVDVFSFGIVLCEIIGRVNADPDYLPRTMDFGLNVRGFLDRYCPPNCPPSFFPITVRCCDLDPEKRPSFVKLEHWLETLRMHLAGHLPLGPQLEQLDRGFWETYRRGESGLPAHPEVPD
# UniProt P49759: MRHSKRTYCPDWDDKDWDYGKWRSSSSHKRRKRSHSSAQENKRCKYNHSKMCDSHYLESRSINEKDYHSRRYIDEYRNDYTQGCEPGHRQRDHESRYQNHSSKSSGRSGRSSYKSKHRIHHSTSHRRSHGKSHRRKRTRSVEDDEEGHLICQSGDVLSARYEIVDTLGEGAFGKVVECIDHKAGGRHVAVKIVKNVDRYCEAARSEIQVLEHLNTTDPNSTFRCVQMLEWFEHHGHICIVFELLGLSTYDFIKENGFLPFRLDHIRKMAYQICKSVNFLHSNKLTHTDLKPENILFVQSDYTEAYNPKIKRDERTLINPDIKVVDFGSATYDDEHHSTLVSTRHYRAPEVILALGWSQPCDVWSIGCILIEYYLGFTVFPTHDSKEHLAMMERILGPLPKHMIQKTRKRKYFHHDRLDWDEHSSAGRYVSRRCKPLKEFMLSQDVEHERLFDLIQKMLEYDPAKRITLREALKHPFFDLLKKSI
# UniProt P31749: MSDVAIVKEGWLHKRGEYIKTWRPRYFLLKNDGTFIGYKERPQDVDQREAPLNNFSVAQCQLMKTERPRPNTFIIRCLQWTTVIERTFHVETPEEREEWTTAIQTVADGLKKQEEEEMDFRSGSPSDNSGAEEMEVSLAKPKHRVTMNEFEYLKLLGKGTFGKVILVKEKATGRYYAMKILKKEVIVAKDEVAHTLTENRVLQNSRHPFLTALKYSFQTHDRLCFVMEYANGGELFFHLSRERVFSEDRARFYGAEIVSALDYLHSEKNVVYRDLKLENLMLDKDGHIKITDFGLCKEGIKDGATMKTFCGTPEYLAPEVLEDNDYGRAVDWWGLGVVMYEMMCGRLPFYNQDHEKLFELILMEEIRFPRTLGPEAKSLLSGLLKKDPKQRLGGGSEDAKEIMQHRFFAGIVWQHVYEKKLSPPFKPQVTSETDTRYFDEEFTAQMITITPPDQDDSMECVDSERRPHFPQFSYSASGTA
# UniProt Q99759: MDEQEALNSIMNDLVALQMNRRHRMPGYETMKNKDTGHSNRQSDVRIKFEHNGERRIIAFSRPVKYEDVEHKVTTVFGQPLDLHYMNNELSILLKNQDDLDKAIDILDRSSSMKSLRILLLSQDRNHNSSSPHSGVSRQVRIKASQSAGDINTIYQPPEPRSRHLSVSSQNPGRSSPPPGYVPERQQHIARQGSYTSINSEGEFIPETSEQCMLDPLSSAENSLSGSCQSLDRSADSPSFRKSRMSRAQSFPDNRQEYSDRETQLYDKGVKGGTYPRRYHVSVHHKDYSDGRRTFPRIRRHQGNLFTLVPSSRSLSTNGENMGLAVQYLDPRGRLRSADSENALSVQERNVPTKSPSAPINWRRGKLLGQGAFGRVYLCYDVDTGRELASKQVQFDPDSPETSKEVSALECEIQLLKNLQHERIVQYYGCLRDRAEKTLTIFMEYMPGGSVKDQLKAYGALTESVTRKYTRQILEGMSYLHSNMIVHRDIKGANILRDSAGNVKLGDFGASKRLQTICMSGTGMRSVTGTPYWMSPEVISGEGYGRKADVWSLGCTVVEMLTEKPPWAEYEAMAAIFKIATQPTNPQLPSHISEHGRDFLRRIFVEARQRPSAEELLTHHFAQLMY
# UniProt P05771, whole entry, looked up: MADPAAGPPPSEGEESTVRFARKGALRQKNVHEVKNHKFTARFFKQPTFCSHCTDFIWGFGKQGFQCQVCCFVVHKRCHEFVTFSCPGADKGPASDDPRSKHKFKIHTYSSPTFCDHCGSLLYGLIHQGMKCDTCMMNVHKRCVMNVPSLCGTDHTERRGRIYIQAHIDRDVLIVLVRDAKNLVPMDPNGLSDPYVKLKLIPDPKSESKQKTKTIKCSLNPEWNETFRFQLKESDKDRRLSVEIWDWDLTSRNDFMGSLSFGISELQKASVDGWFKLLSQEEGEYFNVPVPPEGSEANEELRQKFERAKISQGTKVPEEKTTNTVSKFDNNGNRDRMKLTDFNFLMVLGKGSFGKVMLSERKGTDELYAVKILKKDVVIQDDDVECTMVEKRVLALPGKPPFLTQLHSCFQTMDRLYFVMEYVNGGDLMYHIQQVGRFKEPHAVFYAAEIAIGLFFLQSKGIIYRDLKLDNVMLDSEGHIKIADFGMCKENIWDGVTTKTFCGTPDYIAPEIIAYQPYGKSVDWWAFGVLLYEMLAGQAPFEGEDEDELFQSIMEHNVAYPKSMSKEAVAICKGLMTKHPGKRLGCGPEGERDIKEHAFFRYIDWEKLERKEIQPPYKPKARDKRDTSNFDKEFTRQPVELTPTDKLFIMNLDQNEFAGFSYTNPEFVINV
# UniProt Q13177, whole entry, looked up: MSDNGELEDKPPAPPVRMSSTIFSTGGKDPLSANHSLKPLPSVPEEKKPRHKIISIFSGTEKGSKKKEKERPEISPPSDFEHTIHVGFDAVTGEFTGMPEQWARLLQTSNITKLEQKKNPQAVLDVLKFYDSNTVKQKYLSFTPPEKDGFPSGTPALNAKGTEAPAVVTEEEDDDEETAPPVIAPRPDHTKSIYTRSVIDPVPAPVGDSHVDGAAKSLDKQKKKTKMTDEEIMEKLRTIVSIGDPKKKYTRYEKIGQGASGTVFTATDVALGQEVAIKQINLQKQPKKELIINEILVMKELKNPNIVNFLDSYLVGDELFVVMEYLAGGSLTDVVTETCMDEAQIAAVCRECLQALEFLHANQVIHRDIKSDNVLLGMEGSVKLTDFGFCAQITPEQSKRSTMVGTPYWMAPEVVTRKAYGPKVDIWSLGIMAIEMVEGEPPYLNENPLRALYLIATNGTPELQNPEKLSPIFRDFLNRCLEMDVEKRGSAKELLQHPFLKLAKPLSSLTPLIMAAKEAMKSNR
# How the values were obtained:
# Assay in all cases: radiometric filter-binding kinase assay, Kinase HotSpot
# Settings in all cases: compound 0.5 µM; ATP 10 µM
# [1] = target: CAMK2B (human) (UniProt Q13554)
# [2] = target: FLT1 (human) (UniProt P17948)
# [3] = target: HIPK4 (human) (UniProt Q8NE63)
# [4] = target: CLK3 (human) (UniProt P49761)
# [5] = target: PHKG2 (human) (UniProt P15735)
# [6] = target: NEK6 (human) (UniProt Q9HC98)
# [7] = target: CAMKK1 (human) (UniProt Q8N5S9)
# [8] = target: FGFR2 (human) (UniProt P21802)
# [9] = target: MAP3K9 (human) (UniProt P80192)
# [10] = target: PAK7 (human) (UniProt Q9P286)
# [11] = target: MYLK (human) (UniProt Q15746)
# [12] = target: ROCK1 (human) (UniProt Q13464)
# [13] = target: STK17A (human) (UniProt Q9UEE5)
# [14] = target: PIM3 (human) (UniProt Q86V86)
# [15] = target: TAOK1 (human) (UniProt Q7L7X3)
# [16] = target: TEC (human) (UniProt P42680)
# [17] = target: LIMK1 (human) (UniProt P53667)
# [18] = target: CLK1 (human) (UniProt P49759)
# [19] = target: EPHA2 (human) (UniProt P29317)
# [20] = target: EPHA1 (human) (UniProt P21709)
# [21] = target: PRKACA (human) (UniProt P17612)
# [22] = target: CSNK2A1 (human) (UniProt P68400)
# [23] = target: RPS6KA3 KD1 KD2 (human) (UniProt P51812)
# [24] = target: PRKCA (human) (UniProt P17252)
# [25] = target: AKT1 (human) (UniProt P31749)
# [26] = target: DCLK2 (human) (UniProt Q8N568)
# [27] = target: MAP3K3 (human) (UniProt Q99759)
# [28] = target: PRKCB1 (human) (UniProt P05771)
# [29] = target: TYK2 JH1 catalytic (human) (UniProt P29597)
# [30] = target: MAPK14 (human) (UniProt Q16539)
# [31] = target: CAMKK2 (human) (UniProt Q96RR4)
# [32] = target: MAPK3 (human) (UniProt P27361)
# [33] = target: DSTYK (human) (UniProt Q6XUX3)
# [34] = target: NEK2 (human) (UniProt P51955)
# [35] = target: MAP4K4 (human) (UniProt O95819)
# [36] = target: STK16 (human) (UniProt O75716)
# [37] = target: PAK2 (human) (UniProt Q13177)
# [38] = target: SGK3 (human) (UniProt Q96BR1)
# [39] = target: PHKG1 (human) (UniProt Q16816)
# [40] = target: SLK (human) (UniProt Q9H2G2)
# [41] = target: GRK7 (human) (UniProt Q8WTQ7)
# [42] = target: FGR (human) (UniProt P09769)
smiles,measurement,setting,value
O=C1c2ccccc2-[n+]2ccc3c([nH]c4ccccc43)c21,residual activity,[1],104%
same,residual activity,[2],86.9%
same,residual activity,[3],96.5%
same,residual activity,[4],88.2%
same,residual activity,[5],104%
same,residual activity,[6],87.8%
same,residual activity,[7],133%
same,residual activity,[8],100%
same,residual activity,[9],94.3%
same,residual activity,[10],96.2%
same,residual activity,[11],87.6%
same,residual activity,[12],97.4%
same,residual activity,[13],98.1%
same,residual activity,[14],102%
same,residual activity,[15],95.5%
same,residual activity,[16],108%
same,residual activity,[17],85.6%
same,residual activity,[18],98%
same,residual activity,[19],103%
same,residual activity,[20],79.5%
same,residual activity,[21],97.4%
same,residual activity,[22],91.7%
same,residual activity,[23],98.7%
same,residual activity,[24],74.2%
same,residual activity,[25],97%
same,residual activity,[26],93.2%
same,residual activity,[27],121%
same,residual activity,[28],94.4%
same,residual activity,[29],98.3%
same,residual activity,[30],90.2%
same,residual activity,[31],98.6%
same,residual activity,[32],79.7%
same,residual activity,[33],77.3%
same,residual activity,[34],77.1%
same,residual activity,[35],91.9%
same,residual activity,[36],103%
same,residual activity,[37],97%
same,residual activity,[38],95.5%
same,residual activity,[39],100%
same,residual activity,[40],83.4%
same,residual activity,[41],94.4%
same,residual activity,[42],93.2%
COc1cc(OC)c(/C=C2\C(=O)Nc3ccccc32)c(OC)c1,residual activity,[1],103%
same,residual activity,[2],105%
same,residual activity,[3],109%
same,residual activity,[4],94.3%
same,residual activity,[5],94.2%
same,residual activity,[6],99.3%
same,residual activity,[7],122%
same,residual activity,[8],109%
same,residual activity,[9],101%
same,residual activity,[10],95.8%
same,residual activity,[11],97.3%
same,residual activity,[12],100%
same,residual activity,[13],97.4%
same,residual activity,[14],98.6%
same,residual activity,[15],102%
same,residual activity,[16],134%
same,residual activity,[17],83.8%
same,residual activity,[18],94.9%
same,residual activity,[19],102%
same,residual activity,[20],88.8%
same,residual activity,[21],101%
same,residual activity,[22],101%
same,residual activity,[23],90.4%
same,residual activity,[24],91.1%
same,residual activity,[25],94.9%
same,residual activity,[26],97.6%
same,residual activity,[27],104%
same,residual activity,[28],91.8%
same,residual activity,[29],101%
same,residual activity,[30],98%
same,residual activity,[31],98.8%
same,residual activity,[32],101%
same,residual activity,[33],97.7%
same,residual activity,[34],107%
same,residual activity,[35],66.1%
same,residual activity,[36],96.6%
same,residual activity,[37],98.8%
same,residual activity,[38],103%
same,residual activity,[39],98.4%
same,residual activity,[40],94.3%
same,residual activity,[41],99.2%
same,residual activity,[42],91.8%
